# Target: T1, COX-2 (Ovis aries, UniProt P79208)
# T1 construct: host or cells: insect cells (membranes, CHAPS-solubilized)
# T1 sequence (P79208 17-603): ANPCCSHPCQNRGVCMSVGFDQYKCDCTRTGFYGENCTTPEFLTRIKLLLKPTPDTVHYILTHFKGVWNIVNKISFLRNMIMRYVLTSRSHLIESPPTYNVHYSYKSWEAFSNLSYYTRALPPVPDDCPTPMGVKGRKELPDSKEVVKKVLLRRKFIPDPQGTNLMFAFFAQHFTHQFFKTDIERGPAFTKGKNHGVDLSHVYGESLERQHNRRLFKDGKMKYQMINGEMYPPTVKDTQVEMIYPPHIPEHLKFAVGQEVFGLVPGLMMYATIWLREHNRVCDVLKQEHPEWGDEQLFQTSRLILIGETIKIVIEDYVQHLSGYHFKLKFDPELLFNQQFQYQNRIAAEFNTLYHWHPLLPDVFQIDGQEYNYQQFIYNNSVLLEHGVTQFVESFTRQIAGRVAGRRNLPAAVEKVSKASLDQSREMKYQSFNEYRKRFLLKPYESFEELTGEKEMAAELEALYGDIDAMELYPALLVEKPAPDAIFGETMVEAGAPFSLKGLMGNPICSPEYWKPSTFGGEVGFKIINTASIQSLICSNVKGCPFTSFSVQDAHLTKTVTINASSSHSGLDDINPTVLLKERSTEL
# Assay: Assay for COX-2 activity (Ovine), PGE2 formation by ELISA
# Type: biochemical
# Conditions: read-out: COX-2 10 nM (% inhibition)
# Experimental: COX activity was assayed as PGE2 formed/μg protein/time using ELISA to detect prostaglandin release. CHAPS-solubilized insect cell membranes containing the appropriate COX enzyme were incubated in a potassium phosphate buffer (50 mM, pH 8.0) containing Tris-HCl, EDTA, phenol, and heme with the addition of arachidonic acid (10 μM). Compounds were pre-incubated with the enzyme for 5-10 minutes prior to the addition of arachidonic acid. Any reaction between the arachidonic acid and the enzyme was stopped after two minutes at 37° C. The PGE2 formed was measured by standard ELISA technology (Cayman Chemical).
compound,measurement,value
"Cc1onc(-c2ccccc2)c1-c1ccc(S(N)(=O)=O)cc1 [Valdecoxib, reference compound]",inhibition at 0.01 µM,71%
